# Yeast mating assay 1: variants of the scFv Ab-14

Reference: Engelhart et al. 2022, doi:10.1038/s41597-022-01779-4. File: FLAb, binding data.

Antigen: PDVDLGDISGINAS, a 14-residue peptide of the SARS-CoV-2 spike HR2 region.

Parent: Ab-14, a human scFv built as VH, a 15-residue (Gly4Ser)3 linker, VL. Only the CDRs of the heavy chain vary.
VH: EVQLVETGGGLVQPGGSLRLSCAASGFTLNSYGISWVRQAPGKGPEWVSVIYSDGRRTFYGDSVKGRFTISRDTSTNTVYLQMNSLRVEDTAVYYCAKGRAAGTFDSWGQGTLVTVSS
VL: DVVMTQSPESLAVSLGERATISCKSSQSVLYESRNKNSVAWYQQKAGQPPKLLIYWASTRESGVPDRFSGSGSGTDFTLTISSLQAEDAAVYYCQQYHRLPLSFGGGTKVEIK

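The starting antibody came from a phage panning campaign against this peptide. AAYL49 was designed without a model: most single CDR substitutions and a random sample of double and triple ones. AlphaSeq pools MATa yeast showing the antibodies with MATalpha yeast showing the peptide. The frequency of each diploid, read from paired DNA barcodes, reflects how well the two displayed proteins bind. Each replicate has its own calibration line, from reference interactions of the BCL2 family. Mating was done three times.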

Changes read parent residue, position, new residue, counted from the first residue of the VH shown.
All variants listed here change F27 of the VH, counted from its first residue.
Kd is apparent (estimated from mating counts) and averaged on the log scale over replicates with a signal. Smaller is tighter.
An entry "nd" has no value in the source: the pair was not observed among the diploids in any replicate. This suggests poor binding but is not conclusive.
As a blank, each scFv also met three strains without target: over library AAYL49, 15% of these pairings were detected, typically at 11 µM and seldom below 680 nM.

- F27P/Y32A/Y60S = 72 µM (1 of 3 replicates)
- F27V/S53F = 4.0 µM (3 of 3 replicates)
- F27A/S31W/G103P = nd (0 of 3 replicates)
- G26A/F27P/A102L = 400 µM (1 of 3 replicates)
- F27W/I51C/A102Y = 11 µM (1 of 3 replicates)
- F27N/S31P/I34L = 25 µM (1 of 3 replicates)
- F27Q/G99H = 300 µM (1 of 3 replicates)
- G26H/F27D/I51G = nd (0 of 3 replicates)
- F27H/Y32T/K65E = 81 µM (1 of 3 replicates)
- F27Y/V50F/Y52R = 46 µM (1 of 3 replicates)
- F27K/I51E/V64L = 1.7 µM (1 of 3 replicates)
- F27I/S35T = nd (0 of 3 replicates)
- F27N/Y60S/A101D = nd (0 of 3 replicates)
- F27D/R56L/R100S = 9.4 nM (3 of 3 replicates)
- F27W/A101N/T104D = 190 nM (3 of 3 replicates)
- F27A/N30L/Y60R = 480 nM (1 of 3 replicates)
- F27H/S63Y/S107I = 210 µM (1 of 3 replicates)
- F27T/G55R/D62E = nd (0 of 3 replicates)
- F27C/S35Q/F105V = nd (0 of 3 replicates)
- F27L/S63M/A102S = nd (0 of 3 replicates)
- F27E/R56N/D106C = 120 nM (3 of 3 replicates)
- F27W = 2.2 µM (3 of 3 replicates)
- F27A/A102Q/G103Y = nd (0 of 3 replicates)
- F27K/D54R/R57W = 1.4 µM (1 of 3 replicates)
- F27Q = 30 nM (3 of 3 replicates)
- G26Y/F27Y/A101K = 720 nM (3 of 3 replicates)
- F27I/I34F/A101D = 8.9 µM (1 of 3 replicates)
- F27S = 280 nM (3 of 3 replicates)
- G26L/F27G/D106W = 1.4 µM (3 of 3 replicates)
- F27M/I51Q = nd (0 of 3 replicates)

Extract of 2 entries:

* F27K/I51E/V64L -> 1.7 µM (1 of 3 replicates)
* F27H/Y32T/K65E -> 81 µM (1 of 3 replicates)